According to US12319655B2, “RAF kinase inhibitors and methods of use thereof” (Deciphera Pharmaceuticals, LLC, priority 2021, dated 2025):

Test system: Miapaca-2 cells
Assay: MiaPaca-2 Combination Cell proliferation Assay (1) with cobimetinib
Conditions: read-out: MiaPaca-2 Combo (1) IC50, MiaPaca-2 cell proliferation
Protocol: MiaPaca-2 Combination Cell proliferation Assay (1)
Miapaca-2 cells (catalog #CRL-1420) are obtained from the American Type Culture Collect (ATCC, Manassas, VA). Briefly, cells were grown in DMEM supplemented with 10% characterized fetal bovine serum (Invitrogen, Carlsbad, CA), 2.5% New Zealand sourced horse serum and 1% Penicillin/Streptomycin/L-Glutamine at 37° C., 5% CO2, and 95% humidity. Cells are expanded until reaching 70-95% confluency at which point they are subcultured or harvested for assay use. A serial dilution of test compound was dispensed into multiple 96-well black clear bottom plates in triplicate. A serial dilution of complete growth medium containing cobimetinib was prepared at twice the final concentration and 100 μL was dispensed across the test compound titration in triplicate. Three thousand cells are added per well in 100 μL complete growth medium in each 96-well plate. Plates are incubated for 67-72 hours at 37° C., 5% CO2, and 95% humidity. […] Plates are read on a Synergy2 or equivalent reader (Biotek, Winooski VT) using an excitation of 540 nm and an emission of 600 nm. Drug synergy was assessed via BLISS analysis in the Combenefit software (Cancer Research UK Cambridge Institute, Cambridge, UK). Data is analyzed using Prism software (Graphpad, San Diego, CA) to calculate IC50 values. […]

IC50: 100 to 500 nM
Compound: CNC(=O)c1cc(-c2cc(-c3cc(NC(=O)c4ccnc(C(F)(F)F)c4)ccc3C)ccn2)ccn1
